Data as given in patent publication US10139410B2, “Protein-protein interaction as biomarkers” (H. LEE MOFFITT CANCER CENTER AND RESEARCH INSTITUTE, INC., priority 2011, dated 2018).

Test system: EGFR protein-protein interactions
Details: human, in vivo

## COc1cc2ncnc(Nc3ccc(F)c(Cl)c3)c2cc1OCCCN1CCOCC1 [gefitinib]
  interactions with EGFR (PLA): reduce interactions with EGFR
